# From US11198705B2, “Hybrid Amphotericin B derivatives with reduced toxicity” (priority 2018, dated 2021)
# Legend:
# Cmax in rats = format: in vivo; conditions: C2′epiAmB at 17.5 mg/kg vs AmB at 1 mg/kg
# [1] = IV toxicity in rats (BUN, ALT/AST, mortality); conditions: rats, 2, 10, and 17.5 mg/kg (highest dose tested)
compound,measurement,setting,value
C[C@@H]1[C@H](O)[C@@H](C)/C=C/C=C/C=C/C=C/C=C/C=C/C=C/[C@H](O[C@@H]2O[C@H](C)[C@@H](O)[C@H](N)[C@H]2O)C[C@@H]2O[C@](O)(C[C@@H](O)C[C@@H](O)[C@H](O)CC[C@@H](O)C[C@@H](O)CC(=O)O[C@H]1C)C[C@H](O)[C@H]2C(=O)O [C2′epiAmB],Cmax relative to Cmax for AmB,Cmax in rats,> 16 fold
same,"BUN, ALT/AST and mortality",[1],no elevations in BUN or ALT/AST and no mortality
